# Binding of CDR-mutated scFvs to a peptide of the spike HR2 region

The measurements come from Engelhart et al. 2022 (doi:10.1038/s41597-022-01779-4) through the FLAb antibody collection.

Binding partner: SARS-CoV-2 spike HR2 peptide, sequence PDVDLGDISGINAS.

Parent: Ab-14, a human scFv built as VH, a 15-residue (Gly4Ser)3 linker, VL. Only the CDRs of the light chain vary.
VH: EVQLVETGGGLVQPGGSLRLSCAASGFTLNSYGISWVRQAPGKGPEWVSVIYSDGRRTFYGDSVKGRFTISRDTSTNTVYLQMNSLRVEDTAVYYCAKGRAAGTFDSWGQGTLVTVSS
VL: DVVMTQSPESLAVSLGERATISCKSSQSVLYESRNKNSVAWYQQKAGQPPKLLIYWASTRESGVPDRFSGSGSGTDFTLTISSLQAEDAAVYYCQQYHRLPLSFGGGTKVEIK

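The starting antibody came from a phage panning campaign against this peptide. In library AAYL50, one, two or three CDR residues were substituted; doubles and triples were drawn at random. AlphaSeq pools MATa yeast showing the antibodies with MATalpha yeast showing the peptide. Pairs that bind mate more often; barcode pairs of the diploids are counted by sequencing. A regression on co-assayed BCL2-family reference pairs converts the normalised counts of each replicate to an apparent Kd. The assay was run in three technical replicates.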

Positions count from residue 1 of the parent VL; S25P puts P in place of S.
Values are log10 of the apparent Kd in nM; lower means stronger binding.
A mean of the replicates is given; it leaves out those without a signal.
"ND" means that the variant was in the library but no mating with the target was seen in that replicate; the authors take this as a sign of poor binding, and no number exists.
Nonspecific signal, from three strains lacking the peptide, appeared in 18% of pairings of library AAYL50, centred on 4.19 (5% of these signals below 2.99); values are not corrected for it. The control count says in how many pairings with the empty strains this scFv gave a signal, with their mean in brackets.

| # | changes | log10 Kd, replicates | mean, log10 nM | signal with controls |
|---|---|---|---|---|
| 1 | S25P S58E L102H | 0.95 1.02 1.08 | 1.02 | 0/9 |
| 2 | S26D L30M S33I | 2.67 1.97 3.18 | 2.61 | 0/9 |
| 3 | Q27I S28H Y97F | ND ND ND | ND | 0/9 |
| 4 | Q95A L100R L102H | ND ND ND | ND | 1/9 (4.62) |
| 5 | S33Y N35H N37V | ND ND ND | ND | 1/9 (4.59) |
| 6 | V29Y S33D S38V | ND ND ND | ND | 0/9 |
| 7 | S28L H98Q P101V | ND ND ND | ND | 0/9 |
| 8 | L30V E32V R99T | ND 3.54 ND | 3.54 | 3/9 (4.11) |
| 9 | S25W S28F S38T | 5.24 3.73 4.78 | 4.58 | 8/9 (4.00) |
| 10 | S26Q S33C S62A | 1.93 2.29 2.80 | 2.34 | 2/9 (3.30) |
| 11 | S58L Q95R R99D | ND ND ND | ND | 0/9 |
| 12 | K24L S58K Y97G | ND ND ND | ND | 0/9 |
| 13 | Q27Y T59M R99G | 1.27 1.27 1.37 | 1.30 | 2/9 (3.84) |
| 14 | L30D R99W S103C | 0.56 0.66 0.90 | 0.71 | 0/9 |
| 15 | S38A S58R Q96D | 1.40 1.30 1.35 | 1.35 | 3/9 (3.83) |
| 16 | L30V N35V E61F | 1.47 2.78 2.11 | 2.12 | 0/9 |
| 17 | S25M R60L L102I | 0.89 0.91 0.86 | 0.89 | 1/9 (3.11) |
| 18 | R99D | 2.33 2.99 1.85 | 2.39 | 0/9 |
| 19 | S25F E61K S62R | ND 3.71 ND | 3.71 | 2/9 (4.19) |
| 20 | N37G | 2.14 1.54 1.90 | 1.86 | 3/9 (3.96) |
| 21 | K24I S28W V29Q | 2.47 2.17 2.27 | 2.30 | 1/9 (3.23) |
| 22 | S26D V39T S103I | ND 2.92 ND | 2.92 | 3/9 (4.70) |
| 23 | Y31S S58Q L102M | 3.03 2.61 2.96 | 2.87 | 3/9 (4.96) |
| 24 | E32L R34K L100E | 3.76 3.72 ND | 3.74 | 1/9 (4.64) |
| 25 | V39P L100N S103I | 4.82 ND 5.27 | 5.04 | 4/9 (4.99) |
| 26 | S58P L102N | ND ND ND | ND | 0/9 |
| 27 | A57S R60F S103D | ND ND ND | ND | 0/9 |
| 28 | S26G L30V V39N | ND ND ND | ND | 1/9 (3.15) |
| 29 | K36H N37M V39K | ND ND ND | ND | 1/9 (3.40) |
| 30 | K24Y Y31N L100V | 0.79 0.95 1.06 | 0.93 | 4/9 (4.93) |
| 31 | S26Q W56D T59Y | 0.06 0.51 0.34 | 0.30 | 3/9 (4.26) |
| 32 | S38I A40P P101S | ND ND ND | ND | 2/9 (3.55) |
| 33 | S25W S33L L100P | ND ND ND | ND | 1/9 (3.88) |
| 34 | R34T A57K S58P | ND ND ND | ND | 3/9 (4.08) |
| 35 | Q95P Y97P L100K | ND ND 3.34 | 3.34 | 0/9 |
| 36 | S25Q S38Q | 1.30 1.36 1.69 | 1.45 | 3/9 (4.33) |
| 37 | T59A H98N L102C | 1.13 1.52 1.54 | 1.40 | 2/9 (3.94) |

For reference, the parent read 0.65 as the reference entry and 1.68 as a member of this library.